The record followed here is PubChem BioAssay AID2732 (Emory University Molecular Libraries Screening Center, 2010).

The inhibition is the drop in the measured response relative to a control, in per cent.

This is a selection; strong and weak results do not stand in their true shares. Some structures show a salt or complex split into parts, the way the source records it. The source made the active and inactive calls.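 The calls were made as follows: active = compounds that reduced the stress-induced luciferase reporter signal by more than about 70% of percent inhibition (limit read from the data); inactive = the rest.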

The nature of the experiment: blockers of ER-stress CHOP reporter expression – cell-based, unfolded protein response, luciferase reporter, primary screen (AID 2732).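 Also: 0% = tunicamycin plus vehicle and 100% = wells without tunicamycin.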 The settings on record: CHO-K1 CHOP-promoter luciferase, tunicamycin-induced, 15-18 h; at 10 µM; stronger effect = higher value. (In general: In a reporter assay the amount or activity of a reporter protein is the signal.)
As for `O=C(OCCN1CCN(CCOCc2ccccc2)CC1)C(O)(c1ccccc1)c1ccccc1`, the inhibition was inactive: 15.3%. The result for `O=C(OC1CN2CCC1CC2)c1ccc([N+](=O)[O-])cc1` (centres undefined) reads inactive: -10.8%; that for `COc1ccc2c(c1O)-c1c(O)c(OC)cc3c1[C@H](C2)[N+](C)(C)CC3.O=[N+]([O-])c1cc([N+](=O)[O-])c([O-])c([N+](=O)[O-])c1[O-]`, inactive: -5.36%.

In the case of `CC(C)c1ccc(OP(C)(=O)Nc2ccc(SC(F)(F)F)cc2)cc1` (centres undefined), the inhibition was inactive: 62.2%. The result for `CP(=O)(Nc1ccccc1F)Oc1ccccc1` (centres undefined) reads inactive: 6.87%. The figure for `CCN(CC)CCCOC(=O)C(O)(c1ccccc1)C1CCCCC1` (centres undefined) is inactive: 13.4%; for `CCCCCOc1ccc(NP(C)(=O)Oc2ccc(Cl)cc2Cl)cc1` (centres undefined) it is active: 94%; for `CP(=O)(Nc1ccccc1)Oc1ccc(F)cc1` (centres undefined) it is inactive: 19.4%. With `COc1ccc(OP(C)(=O)Nc2ccc(SC(F)(F)F)cc2)cc1` (centres undefined), the inhibition is inactive: 30.9%. The result for `CCOC(=O)c1ccc(NP(C)(=O)Oc2ccc(F)cc2)cc1` (centres undefined) reads inactive: 5.44%; that for `O=[N+]([O-])c1cc([N+](=O)[O-])c(NCC2CCS(=O)(=O)C2)c([N+](=O)[O-])c1` (centres undefined), inactive: -32.4%.

Take `Cc1cc(-c2cccc3ccccc23)c(C)cn1.O=[N+]([O-])c1cc([N+](=O)[O-])c(O)c([N+](=O)[O-])c1`: the inhibition was inactive: 12%. Take `O=[N+]([O-])c1ccc(OP2(=O)COCCO2)cc1` (centres undefined): the inhibition was inactive: -19.2%.

With `COc1ccc(OP(C)(=O)Nc2cccc(Br)c2)cc1` (centres undefined), the inhibition is inactive: 9.29%. The result for `COc1ccc(NP(C)(=O)Oc2ccccc2OC)cc1` (centres undefined) reads inactive: 2.07%. `CN(C)CCOC(=O)C(O)(c1ccccc1)C1CCCCC1` (centres undefined): the inhibition is inactive: 6.21%. The figure for `CP(=O)(Nc1ccc2c(c1)OCCO2)Oc1ccccc1` (centres undefined) is inactive: -14.1%; for `Cc1ccccc1NP(C)(=O)Nc1ccccc1C` it is inactive: -11.7%; for `CP(=O)(Nc1ccc(SC(F)(F)F)cc1)Oc1ccc(F)cc1` (centres undefined) it is inactive: 27.1%. For the compound `CCOP(C)(=S)SCC(=O)NC(C)(CC)C(=O)O` (centres undefined), the inhibition was inactive: -10.8%. Turning to `CP(=O)(Nc1ccc(Cl)cc1)Oc1ccc(F)cc1` (centres undefined), the inhibition is inactive: -3.98%. For `COc1ccccc1OP(C)(=O)Nc1ccccc1Br` (centres undefined), the inhibition was inactive: -16.6%. With `CC(C)(C)c1ccc(OP(C)(=O)O)cc1`, the inhibition is inactive: 4.64%. The result for `CN(C)C(=O)c1c([N+](=O)[O-])cc([N+](=O)[O-])cc1[N+](=O)[O-]` reads inactive: -72%. On to `N#[O+].[C-]#N.[C-]#N.[C-]#N.[C-]#N.[C-]#N.[Fe+2].[Na+].[Na+]`, for which the inhibition is inactive: -4.33%. The result for `CCN(CC)CC(O)COC(=O)C(O)(c1ccccc1)C1CCCCC1` (centres undefined) reads inactive: 13.1%; that for `COc1ccc(OP(C)(=O)Nc2ccc(Br)cc2)cc1` (centres undefined), inactive: 34.6%; that for `CP(=O)(Oc1ccccc1)N1CCOC1=O` (centres undefined), inactive: 19.5%. The result for `CCc1ccc(OP(C)(=O)Nc2cccnc2)cc1` (centres undefined) reads inactive: 28.5%; that for `O=C(OCCCN1CCCC1)C(O)(c1ccccc1)C1CCCCC1` (centres undefined), inactive: 3.23%. Regarding `CP(=O)(OC12CC3CC(CC(C3)C1)C2)OC12CC3CC(CC(C3)C1)C2`, the inhibition is active: 79.1%.

On to `CCOC(=O)c1ccc(NP(C)(=O)Oc2ccc(Cl)cc2)cc1` (centres undefined), for which the inhibition is inactive: 26.2%. The figure for `Cc1nc2ccc3ccccc3c2o1.O=[N+]([O-])c1cc([N+](=O)[O-])c(O)c([N+](=O)[O-])c1` is inactive: 9.38%. The result for `CP(=O)(Nc1ccc(Cl)cc1Cl)Oc1ccccc1` (centres undefined) reads inactive: 6.53%; that for `CP(=O)(OCCOc1ccccc1)OCCOc1ccccc1`, inactive: 6.35%. Regarding `Cc1cc(C)cc(OP(C)(=O)Nc2cccc(C(F)(F)F)c2)c1` (centres undefined), the inhibition is inactive: 46.7%.

In the case of `COc1ccc(OP(C)(=O)Nc2ccccc2Br)cc1` (centres undefined), the inhibition is inactive: 13.5%. The figure for `COc1ccccc1OP(C)(=O)Nc1ccc(C)c(C)c1` (centres undefined) is inactive: 4.52%; for `Cc1c(NP(C)(=O)Oc2ccc(C(C)C)cc2)c(=O)n(-c2ccccc2)n1C` (centres undefined) it is inactive: -1.3%. For the compound `O=[N+]([O-])c1cc([N+](=O)[O-])c(Nc2ccccn2)c([N+](=O)[O-])c1`, the inhibition is inactive: 3.96%.

With `CCc1ccc(OP(C)(=O)O)cc1`, the inhibition was inactive: -17.2%. The result for `CP(=O)(Nc1ccccn1)Oc1ccccc1` (centres undefined) reads inactive: -18.8%; that for `COc1ccccc1OP(C)(=O)Nc1ccc(C)cc1C` (centres undefined), inactive: 6.57%. The result for `COc1ccccc1OP(C)(=O)Nc1ccc(Br)cc1` (centres undefined) reads inactive: 13.7%; that for `CN(C)CCOC(=O)C(O)(c1ccccc1)C1CCCC1` (centres undefined), inactive: 22.4%; that for `COc1ccc(OP(C)(=O)Nc2ccccn2)cc1` (centres undefined), inactive: 2.35%.

With `CCN(CC)CCCOC(=O)C(O)(c1ccccc1)c1ccccc1`, the inhibition is inactive: 0.06%. The result for `CCOC(=O)c1ccc(NP(C)(=O)Oc2ccccc2)cc1` (centres undefined) reads inactive: 22.9%. As to `COc1ccccc1OP(C)(=O)Nc1ccc(C)cc1` (centres undefined), the inhibition was inactive: -35.9%.

Turning to `Cc1ccc(NP(C)(=O)Oc2ccccc2)c(C)c1` (centres undefined), the inhibition was inactive: 22.7%.

Consider `COc1ccccc1OP(C)(=O)Nc1cc(Cl)ccc1C` (centres undefined), for which the inhibition is inactive: -14.9%. Regarding `COc1ccc(OP(C)(=O)Nc2cccc(F)c2)cc1` (centres undefined), the inhibition is inactive: -5.82%. The result for `Cc1cc(C)cc(OP(C)(N)=O)c1` (centres undefined) reads inactive: -1.62%. `CC(C)(C)c1ccc(OP(C)(=O)Nc2ccc(SC(F)(F)F)cc2)cc1` (centres undefined): the inhibition is inactive: 63.6%. Regarding `Cc1cccc(C)c1OP(C)(N)=O` (centres undefined), the inhibition was inactive: -8.54%. The figure for `O=[N+]([O-])c1ccc2c(c1)C=Nc1ccccc1O2` is inactive: -35.9%. The figure for `CP(=S)(Nn1cnnc1)Oc1ccccc1` (centres undefined) is inactive: -11.5%; for `COc1ccccc1OP(C)(=O)Nc1ccccc1` (centres undefined) it is inactive: -24.1%. The figure for `CP(=O)(Nc1ccccc1Br)Oc1ccccc1` (centres undefined) is inactive: -2.85%; for `CCOP(C)(=S)SCC(=O)NC(C)C(=O)O` (centres undefined) it is inactive: -19%.

Turning to `CCOC(=O)c1ccc(NP(C)(=O)Oc2ccc(OC)cc2)cc1` (centres undefined), the inhibition is inactive: 8.7%. The figure for `CP(=O)(Nc1ccccn1)Oc1ccc(Cl)cc1` (centres undefined) is inactive: 20.7%.

For the compound `CP(=O)(Nc1ccc(SC(F)(F)F)cc1)Oc1ccc(Cl)cc1` (centres undefined), the inhibition was active: 71.1%. On to `Cc1cccc(C)c1OP(C)(=O)Nc1ccc(SC(F)(F)F)cc1` (centres undefined), for which the inhibition is active: 76.1%. For the compound `CP(=O)(Oc1ccccc1)OC(c1ccccc1)C(F)(F)F` (centres undefined), the inhibition was inactive: 0.71%. For `CP(=O)(NC(=O)Nc1ccccc1)Oc1ccccc1` (centres undefined), the inhibition was inactive: -8.03%. The result for `CCc1ccc(OP(C)(=O)N2CCN(c3ccc([N+](=O)[O-])cc3)CC2)cc1` (centres undefined) reads inactive: 9.94%; that for `Cc1cc(C)cc(OP(C)(=O)Nc2ccc(SC(F)(F)F)cc2)c1` (centres undefined), active: 70.3%.

Turning to `Cc1nc2ccc3ccccc3c2s1.O=[N+]([O-])c1cc([N+](=O)[O-])c(O)c([N+](=O)[O-])c1`, the inhibition is inactive: 46.5%. With `O=[N+]([O-])c1cc([N+](=O)[O-])c(-n2nnc3ccccc32)c([N+](=O)[O-])c1`, the inhibition was inactive: 29.1%. The figure for `CN1CCCCC1COC(=O)C1(O)c2ccccc2CCc2ccccc21` (centres undefined) is inactive: 15%. The result for `COc1ccccc1OP(C)(=O)Nc1c(C)cccc1C` (centres undefined) reads inactive: 8.48%; that for `CCCOc1ccc(NP(C)(=O)Oc2ccc(Cl)cc2)cc1` (centres undefined), inactive: -2.26%; that for `CP(=O)(Nc1ccc(SC(F)(F)F)cc1)Oc1ccccc1` (centres undefined), inactive: 40.2%. The figure for `O=[N+]([O-])c1cc([N+](=O)[O-])c(Nc2nnnn2CCO)c([N+](=O)[O-])c1` is inactive: -14.6%. Turning to `CCOC(=O)C(CC)C1=NC(C)(C)Cc2ccccc21.O=[N+]([O-])c1cc([N+](=O)[O-])c(O)c([N+](=O)[O-])c1` (centres undefined), the inhibition was inactive: 4.02%.

For `CC1=NCCc2c1[nH]c1ccccc21.O=[N+]([O-])c1cc([N+](=O)[O-])c(O)c([N+](=O)[O-])c1`, the inhibition was inactive: 12%. The result for `O=C(O)c1cccc(Nc2c([N+](=O)[O-])cc([N+](=O)[O-])cc2[N+](=O)[O-])c1` reads inactive: -23.2%.

In the case of `Cc1cc(C)cc(OP(C)(=O)Nc2ccccn2)c1` (centres undefined), the inhibition was inactive: 28.1%. With `CP(=O)(Nc1cccc(Br)c1)Oc1ccccc1` (centres undefined), the inhibition is inactive: 4.85%.

With `Cc1ccc(C)c(NP(C)(=O)Oc2ccccc2)c1` (centres undefined), the inhibition is inactive: 3.23%. On to `COc1ccccc1OP(C)(=O)Nc1cccc(Br)c1` (centres undefined), for which the inhibition is inactive: 39.1%. The figure for `Cc1cc(C)cc(OP(C)(=O)Nc2ccc(C)cc2C)c1` (centres undefined) is inactive: 10.3%; for `CCOC(=O)c1ccc(NP(C)(=O)Oc2cc(C)cc(C)c2)cc1` (centres undefined) it is inactive: 44.3%.
